From US20140086975A1, “HYDROGEL FORMULATION FOR DERMAL AND OCULAR DELIVERY” (published 2014)

Test system: NM exposed mouse skin
Assay: Permeability of molecular markers through NM exposed skin, Franz diffusion cell

Substance | Permeability coefficient (24 h after NM exposure) | Permeability coefficient (72 h after NM exposure) | Permeability coefficient (168 h after NM exposure) | Permeability coefficient (Control (No NM exposure))
Rhodamine 123 | 889.7 ± 124.4 (cm · h^−1) × 10^−6 | 477.1 ± 14.14 (cm · h^−1) × 10^−6 | 692.2 ± 18.32 (cm · h^−1) × 10^−6 | 161.5 ± 75.58 (cm · h^−1) × 10^−6
3[H] mannitol | 96.36 ± 13.68 (cm · h^−1) × 10^−6 | 1091 ± 216 (cm · h^−1) × 10^−6 | 157.7 ± 18.6 (cm · h^−1) × 10^−6 | 27.45 ± 2.47 (cm · h^−1) × 10^−6
